Patent US9028845B2, “Chimeric immunomodulatory compounds and methods of using the same-IV” (Dynavax Technologies Corporation, priority 2001, dated 2015)

Legend:
[1] = test system: human PBMCs; assay: Human PBMC cytokine response assay (IFN-γ and IFN-α in cell-free medium by ELISA), with or without cPLGA; format: cell-based
[2] = test system: CD19+ B cells; assay: Human B cell proliferation assay (3H-thymidine incorporation); conditions: Experiment B
[3] = test system: mouse splenocytes; assay: Mouse splenocyte cytokine secretion (IL-6, IL-12, IFN by ELISA); format: cell-based, BALB/c mice; conditions: dose 0.1 μg/ml; 24 h
Procedure: Polynucleotides and chimeric compounds were tested for immunostimulatory activity on mouse splenocytes. Immunostimulation was assessed by measurement of cytokine secretion into the culture media. Cytokine levels in the culture supernatant were determined by enzyme-linked immunosorbent assay (ELISA) tests.
Cells were isolated and prepared using standard techniques. Spleens of 8 to 20 week-old BALB/c mice were harvested and the splenocytes isolated using standard teasing and treatment with ACK lysing buffer from BioWhittaker, Inc. Four spleens were pooled in this experiment. Isolated cells were washed in RPMI 1640 media supplemented with 2% heat-inactivated fetal calf serum (FCS), 50 μM 2-mercaptoethanol, 1% penicillin-streptomycin, and 2 mM L-glutamine and resuspended at approximately […] in 10% FCS/RPMI (RPMI 1640 media with 10% heat-inactivated FCS, 50 μM 2-mercaptoethanol, 1% penicillin-streptomycin, and 2 mM L-glutamine).
Cell cultures were set up in triplicate with approximately 7×10^5 cells/well in a 96-well flat microtiter plate in 100 μl 10% FCS/RPMI with the cells allowed to rest for at lest 1 hour after plating. The indicated test compounds were incubated (at the indicated concentrations) for 24 hours at 37° C. Cell supernatants were harvested and frozen at −80° C. Cytokine production by the cells was determined by ELISAs, as shown in 19.

5′-TGACTGTGAACGTTCGAGATGA-3′ (SEQ ID NO: 2)
IFN-α ([1]; Table 11, donor 28045): 108 pg/mL
IFN-g ([1]; Table 25, donor 28250, polynucleotides/spacers at amounts equivalent to the CIC, spacers alone 9 uM): 121 pg/mL
cpm1 ([2]; donor 121, 2 μg/ml): 19996 cpm
cpm2 ([2]; donor 121, 2 μg/ml): 15031 cpm
cpm3 ([2]; donor 121, 2 μg/ml): 19804 cpm
mean cpm ([2]; donor 121 mean, 2 μg/ml): 18277 cpm
mean of both ([2]; mean of donors 121 and 194, 2 μg/ml): 15041 cpm
IL-6 [3]: 121
